The values below come from patent publication US20240043860A1, “NOVEL HYDROXYPHENYLPYRUVATE DIOXYGENASE POLYPEPTIDES AND METHODS OF USE THEREOF” (Syngenta Crop Protection AG, priority 2020, published 2024).

Several values for one entry are separate records, joined by “and”; a condition that tells them apart may be missing. Equal entries are not always repeated.

Holding throughout (test): spray test, herbicidal damage scoring
What all share (assay type): in vivo

Assay [1] has as its system transgenic tobacco plants expressing mutant HPPD SEQ ID NO: 124. The note with it: Table 4.2, 7 days after treatment, 100=complete death, 0=no damage, one value per event.
The test system of assay [2] is transgenic tobacco plants expressing mutant HPPD SEQ ID 20. The note with it: Table 3.3, 14 days after treatment, 100=complete death, 0=no damage, one value per event. The method, then: (§1) Avena sativa HPPD or orthologues and variants thereof, for example SEQ IDs 1-63 and 122-127, were expressed in transgenic tobacco. DNA sequences that encode these polypeptides (optimized for tobacco or, optionally, codon optimized according to a target crop such as soybean) were prepared synthetically. Each sequence was designed to include a 5′ fusion with TMV omega 5′ leader sequence such that they are flanked at the 5′ end with XhoI and at the 3′ end with KpnI to facilitate direct cloning into a suitable binary vector for Agrobacterium-based plant transformation.
(§2) In one example, the TMV omega 5′ leader and a HPPD encoding gene of interest is excised using XhoI/KpnI and cloned into similarly digested binary vector pBIN 19 (Bevan, Nucl. Acids Res. (1984) behind a double enhanced 35S promoter ahead of a NOS 3′ transcription terminator and then transformed into E. coli DH5 alpha competent cells. DNA recovered from the E. coli is used to transform Agrobacterium tumefaciens LBA4404, and transformed bacteria are selected on media contain rifampicin and kanamycin. Tobacco tissue is subjected to Agrobacterium-mediated transformation using methods well described in the art or as described herein. For example, a master plate of Agrobacterium tumefaciens containing the HPPD expressing the binary vector is used to inoculate 10 ml LB (L broth) containing 100 mg/l Rifampicin plus 50 mg/l Kanamycin using a single bacterial colony. This is incubated overnight at 28° C. shaking at 200 rpm. This entire overnight culture is used to inoculate a 50 ml volume of LB containing the same antibiotics. Again this is cultured overnight at 28° C. shaking at 200 rpm. The Agrobacterium cells are pelleted by centrifuging at 3000 rpm for 15 minutes and then resuspended in MS (Murashige and Skoog) medium containing 30 g/l sucrose, pH 5.9 to an OD […]=0.6. This suspension is dispensed in 25 ml aliquots into petri dishes.
(§3) Once rooted, plantlets are transferred from agar and potted into 50% peat, 50% John Innes Soil No. 3 or, for example, MetroMix® 380 soil (Sun Gro Horticulture, Bellevue, WA) with slow-release fertilizer in 3 inch round or 4 inch square pots and left regularly watered to establish for 8-12d in the glass house. Glass house conditions are about 24-27° C. day; 18-21° C. night and approximately a 14h (or longer in UK summer) photoperiod. Humidity is adjusted to ˜65% and light levels used are up to 2000 umol/m^2 at bench level. […]
(§4) Plants are assessed for damage and scored at, for example, 7 and 14 days after treatment (DAT). […]
(§5) Plants of events showing the least damage are grown to flowering, then bagged and allowed to self. […] Single copy events amongst the Ti plant lines are identified by their 3:1 segregation ratio (with respect to kanamycin and/or herbicide) and by quantitative RT-PCR. […]

For assay [3], the system named is transgenic tobacco plants expressing mutant HPPD SEQ ID NO: 9. As to conditions: Table 3.4, 14 days after treatment, SEQ ID 9, 100=complete death, 0=no damage, one value per event. The method, then: as §1, §2, §3, §4, §5
[4] abbreviates: SEQ ID 125, Herbicide C 200 g/ha.

As for `COCCOCc1nc(C(F)(F)F)ccc1C(O)=C1C(=O)C2CCC(C2)C1=O`, the “herbicidal damage scoring, Bicyclopyrone 800 g/ha” value is 5 in assay [1] (400 gai/ha); 75 and 80 and 85 in assay [2] (dose 200 g/ha); 65 and 70 and 25 in assay [2] (dose 2000 g/ha).

Consider `COc1ccc(-n2nc(C)cc(C(=O)C3C(=O)CCCC3=O)c2=O)cc1OC` [Herbicide C, dioxopyritrione], for which the “herbicidal damage scoring, Herbicide C (100 g/ha)” value in assay [1] (SEQ ID 9, Herbicide C 100 g/ha) is recorded as 25; in assay [1] (SEQ ID 9, Herbicide C 200 g/ha) it was 35; in assay [1] (SEQ ID 125, Herbicide C 100 g/ha) it was 65; in assay [1] (setting [4]), 60; in assay [3] (SEQ ID 125), 70; in assay [3] (setting [4]), 80.
